The target in this experiment is T1, Protein kinase C epsilon type (Homo sapiens, UniProt Q02156).
T1 sequence (Q02156 whole entry): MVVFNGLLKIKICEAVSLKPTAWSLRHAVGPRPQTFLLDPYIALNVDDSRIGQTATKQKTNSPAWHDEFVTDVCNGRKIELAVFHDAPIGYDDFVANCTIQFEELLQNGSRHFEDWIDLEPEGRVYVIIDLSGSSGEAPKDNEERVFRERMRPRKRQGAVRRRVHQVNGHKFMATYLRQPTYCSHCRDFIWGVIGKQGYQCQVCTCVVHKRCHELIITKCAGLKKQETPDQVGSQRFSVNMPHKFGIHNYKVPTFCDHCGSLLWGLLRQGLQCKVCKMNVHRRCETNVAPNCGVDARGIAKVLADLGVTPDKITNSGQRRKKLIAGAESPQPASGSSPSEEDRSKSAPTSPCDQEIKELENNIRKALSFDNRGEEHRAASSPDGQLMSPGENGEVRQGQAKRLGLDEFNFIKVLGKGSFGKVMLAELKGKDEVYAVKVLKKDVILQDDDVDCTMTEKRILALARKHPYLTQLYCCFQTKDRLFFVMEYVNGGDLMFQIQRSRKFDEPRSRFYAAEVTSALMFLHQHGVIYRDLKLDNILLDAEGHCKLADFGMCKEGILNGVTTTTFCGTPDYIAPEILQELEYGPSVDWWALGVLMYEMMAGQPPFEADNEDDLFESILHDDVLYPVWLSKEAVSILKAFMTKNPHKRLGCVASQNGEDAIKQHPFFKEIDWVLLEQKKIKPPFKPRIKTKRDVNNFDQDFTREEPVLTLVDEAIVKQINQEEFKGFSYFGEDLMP
The experiment is described as follows: Inhibition of Protein kinase C epsilon.

Results on one molecule are retold here after BindingDB's records for doi:10.1016/0960-894X(96)00151-5 (1996).

As usually defined, the IC50 is the concentration at which inhibition is half-maximal.

As for `O=C(N[C@@H]1CNCCC[C@H]1OC(=O)c1cc(O)c(C(=O)c2c(O)cccc2C(=O)O)c(O)c1)c1ccc(O)cc1` [Acyclic Balanol Analog (-)-1], the IC50 amounted to 10 nM.
